Results on 2 substances are retold here after patent publication CN111253486A.

Sequences of proteins named here, by UniProt entry; tags and fusion partners are left off. Residues count along the entry.
UniProt Q15116, 25-167 limits assumed: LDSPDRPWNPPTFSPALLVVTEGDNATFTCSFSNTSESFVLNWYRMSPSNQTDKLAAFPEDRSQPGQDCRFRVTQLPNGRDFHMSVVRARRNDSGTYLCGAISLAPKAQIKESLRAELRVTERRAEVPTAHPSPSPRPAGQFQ
UniProt Q15116, 25-170: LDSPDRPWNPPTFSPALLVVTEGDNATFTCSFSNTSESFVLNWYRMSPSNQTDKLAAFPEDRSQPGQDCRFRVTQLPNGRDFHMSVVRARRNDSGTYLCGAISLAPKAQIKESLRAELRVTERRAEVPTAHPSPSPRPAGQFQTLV
UniProt Q15116, 25-288: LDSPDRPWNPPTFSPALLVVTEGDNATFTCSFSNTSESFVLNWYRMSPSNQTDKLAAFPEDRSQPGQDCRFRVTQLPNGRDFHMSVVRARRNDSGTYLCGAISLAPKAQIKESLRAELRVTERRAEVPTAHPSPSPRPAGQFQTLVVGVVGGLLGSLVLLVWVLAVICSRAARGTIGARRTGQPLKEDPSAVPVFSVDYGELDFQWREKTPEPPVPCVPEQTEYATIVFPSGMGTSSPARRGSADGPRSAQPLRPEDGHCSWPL

Several values for one entry are separate records, joined by “and”; a condition that tells them apart may be missing. Equal values may be shown once.

In test [1] the target is Tag-PD-1 (CISBIO HTRF PD-1/PD-L1 binding assay kit 63ADK000CPLPEB) (UniProt Q15116). The experiment in a line: HTRF competition, blocking of PD-1/PD-L1 binding. For orientation: In TR-FRET formats the signal depends on donor and acceptor labels being close together.
For test [2], the target named is human PD-1-his (recombinant human PD-1 extracellular domain with C-terminal polyhistidine tag) (human) (UniProt Q15116). Description: SPR (Biacore 8K), antibody captured, antigen injected.
The target in test [3] is Tag-PD-1 (CISBIO HTRF PD-1/PD-L1 binding assay kit 63ADK000CPLPEB) (UniProt Q15116). The experiment in a line: HTRF competition, blocking of PD-1/PD-L1 binding; relative inhibition.
Test [4] deals with human PD-1 expressed on cells (CHO-K1 cells expressing human PD-1) (human) (UniProt Q15116). Description: cell-based or functional assay.

“nivolumab analog (Chempartners), reference anti-PD-1 antibody”: in test [1], the IC50 – broadly, the concentration needed to halve the response being measured – amounted to 3.79 nM. Besides, in test [2], the Kd (as a rule, the equilibrium constant for the complex coming apart) stood at 4 nM; the koff (in general, a measure of how fast the partners let go of each other) worked out at 0.00152 s⁻¹; the kon (as a rule, the second-order rate constant of association) was 381000 M⁻¹ s⁻¹. For the same substance, in test [3], the 最小I% was 0.715% and 12.7%.
Take “pembrolizumab analog (CrownBio), reference anti-PD-1 antibody”: the EC50 calculated from the Jurkat-NFAT luciferase reporter assay in test [4] is 0.12 nM. Besides, in test [2], the Kd turned out to be 1.65 nM, the koff was determined as 0.00474 s⁻¹ and the kon was found to be 2.88e+06 M⁻¹ s⁻¹.
